Measured values from patent publication US20090054451A1, “Use of Piperidine Derivatives as Agonists of Chemokine Receptor Activity” (Euroscreen S.A., priority 2007, published 2009).

Protein sequences, listed by entry. Tags and fused reporters are not part of them.
UniProt P51681, whole entry: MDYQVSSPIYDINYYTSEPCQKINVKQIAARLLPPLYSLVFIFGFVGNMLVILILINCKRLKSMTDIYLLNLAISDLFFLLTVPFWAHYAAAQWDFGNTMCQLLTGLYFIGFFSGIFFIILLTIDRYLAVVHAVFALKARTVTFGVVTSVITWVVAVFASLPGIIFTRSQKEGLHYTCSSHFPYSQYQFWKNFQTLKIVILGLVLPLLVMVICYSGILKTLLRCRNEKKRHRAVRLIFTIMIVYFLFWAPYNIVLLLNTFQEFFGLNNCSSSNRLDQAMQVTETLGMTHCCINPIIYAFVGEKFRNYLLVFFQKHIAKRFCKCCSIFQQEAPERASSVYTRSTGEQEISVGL

Columns and labels:
CCR5 receptor [1] = molecular target: T1, CCR5 receptor (Homo sapiens, UniProt P51681); test: Aequorin-based calcium flux assay, agonist mode; type: cell-based; design: expressed in transfected cells; host or cells: Chinese hamster ovary (CHO) cells coexpressing apoaequorin and Gα16
Method: (§1) Briefly, Chinese hamster ovary cells expressing the CCR5 receptor are transfected to coexpress apoaequorin and Gα16. Cells are incubated with 5 μM Coelenterazine H (Promega) overnight at room temperature, and resuspended at a concentration of 0.1×10^6 cells/ml. Cells are then mixed with test agonist or antagonist compounds and light emission by the aequorin is recorded with a luminometer (FDSS 6000-Hamamatsu) for 30 sec. Results are expressed as Relative Light Units (RLU). Controls include cells not expressing CCR5 in order to exclude possible non-specific effects of the test compound.
An agonist response is defined as an increase of light emission by aequorin corresponding to 10% or more of the light emitted by a reference sample of cells expressing CCR5 and treated with a the reference agonist ligand MIP-1β.

CCR5 receptor [2] = molecular target: T1, CCR5 receptor; test: Aequorin-based calcium flux assay, antagonist mode (against reference agonist MIP-1β); type: cell-based; design: expressed in transfected cells; host or cells: Chinese hamster ovary (CHO) cells coexpressing apoaequorin and Gα16
Method: as §1
An antagonist response is defined as a decrease of light emission by aequorin of 10% or more in a sample of cells expressing CCR5 stimulated by a reference agonist ligand MIP-1β and treated with the compound of the invention, relative to a sample of cells expressing CCR5 but only treated with the reference agonist ligand MIP-1β.

## CN(C(=O)Cc1ccc(Cl)cc1)C1CCN(CCC(c2ccccc2)c2ccccc2)CC1 [Compound 61]
CCR5 receptor [1]
  Aequorin/Ca++ Agonist assay EC50: Inactive
CCR5 receptor [2]; Aequorin/Ca++ Antagonist assay IC50
  pIC50: 7.46
CCR5 receptor [2]; IC50 (aequorin antagonist assay)
  pIC50: 7.46

pIC50: −log10 of the molar value.
